In US9907800B2, “Kinase inhibitors and method of treating cancer” (University Health Network, priority 2010, dated 2018) one finds IC50 data, which are given here for one compound.

Protein sequences, listed by entry. Tags and fused reporters are not part of them.
UniProt Q96GD4, whole entry: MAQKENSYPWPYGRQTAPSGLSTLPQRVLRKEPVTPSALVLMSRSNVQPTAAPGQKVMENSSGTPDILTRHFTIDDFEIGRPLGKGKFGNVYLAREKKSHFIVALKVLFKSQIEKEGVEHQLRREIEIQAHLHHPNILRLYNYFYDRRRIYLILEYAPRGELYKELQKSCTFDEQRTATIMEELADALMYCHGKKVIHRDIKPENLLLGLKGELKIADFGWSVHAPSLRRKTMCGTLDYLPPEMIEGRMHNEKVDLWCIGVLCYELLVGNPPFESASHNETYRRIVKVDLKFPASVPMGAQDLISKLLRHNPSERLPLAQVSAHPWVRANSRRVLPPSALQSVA

This experiment concerns the target Aurora B (Homo sapiens (Human), UniProt Q96GD4). The experiment can be described thus: Aurora B inhibition assay (Z-Lyte). It counts as biochemical. To be noted: read-out: Aurora B IC50 Ranges.

As a reminder, the IC50 is the concentration that inhibits the measured activity by half. Turning to `COc1ccc2c(c1)[C@]1(C[C@H]1c1ccc3c(-c4ccc(N5CCN(C(C)C)CC5)cc4)n[nH]c3c1)C(=O)N2` [Example A97, (1R,2S)-2-(3-(4-(4-isopropylpiperazin-1-yl)phenyl)-1H-indazol-6-yl)-5′-methoxyspiro[cyclopropane-1,3′-indolin]-2′-one 2,2,2-trifluoroacetate], the IC50 was less than 100 nM.
